# Data reported in patent publication US6800633B2, “Pyrrolo[2,3d]pyrimidine compositions and their use” (OSI Pharmaceuticals, Inc., priority 1998, dated 2004).
# The chains behind the UniProt entries cited, without tags or fusion partners. Where a name states a change or a piece, a line headed by the entry shows the natural chain unless it says otherwise.
# UniProt P0DMS8, whole entry: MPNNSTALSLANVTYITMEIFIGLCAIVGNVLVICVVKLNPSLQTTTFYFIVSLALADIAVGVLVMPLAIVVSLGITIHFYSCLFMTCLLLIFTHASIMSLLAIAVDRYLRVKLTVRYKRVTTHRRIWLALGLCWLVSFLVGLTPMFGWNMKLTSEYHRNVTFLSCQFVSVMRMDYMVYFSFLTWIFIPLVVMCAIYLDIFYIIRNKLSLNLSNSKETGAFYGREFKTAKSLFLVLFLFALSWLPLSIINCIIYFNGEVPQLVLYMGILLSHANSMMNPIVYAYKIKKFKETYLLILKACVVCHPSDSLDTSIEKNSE
# UniProt P30542, whole entry: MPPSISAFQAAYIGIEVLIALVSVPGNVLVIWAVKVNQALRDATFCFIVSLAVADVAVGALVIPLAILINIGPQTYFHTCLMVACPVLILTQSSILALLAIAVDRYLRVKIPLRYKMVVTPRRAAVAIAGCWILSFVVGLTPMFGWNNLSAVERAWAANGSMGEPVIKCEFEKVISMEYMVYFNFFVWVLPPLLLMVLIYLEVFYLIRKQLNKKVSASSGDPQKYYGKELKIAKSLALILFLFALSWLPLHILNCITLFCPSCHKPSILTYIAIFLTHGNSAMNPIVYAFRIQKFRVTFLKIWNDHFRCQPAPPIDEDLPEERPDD
# What was measured:
# human A3 receptor = human A3 receptor (Homo sapiens, UniProt P0DMS8); test: Displacement binding of [3H]CPX, yeast membranes expressing hA3R; details: read-out: IC50 [nM] hA3R, 0.4 nM [3H]CPX
# human adenosine A1 (A1R) = human adenosine A1 (A1R) (Homo sapiens, UniProt P30542); test: Yeast β-Galactosidase reporter gene assay for human adenosine A1 receptor (strain CY12660)
# [1] = biological target: human A1 receptor subtype (Homo sapiens, UniProt P30542); test: biochemical
# [2] = biological target: human A3 receptor subtype (Homo sapiens, UniProt P0DMS8); test: Adenosine 3 receptor competition radioligand binding, [125I]AB-MECA, HEK293 membranes
SMILES,Ki [1],other results
"CC(Cc1ccccc1)Nc1ncnc2c1ncn2[C@@H]1O[C@H](CO)[C@@H](O)[C@H]1O (single isomer, unassigned; (-))",,IC50 (human A3 receptor): 23.6 nM
Cc1[nH]c2nc(-c3ccccc3)nc(NC3CC[C@@H](O)[C@@H](O)C3)c2c1C (some centres unmarked) [CDS-069533],,"IC50 (human adenosine A1 (A1R); read-out: A1 Yeast IC50, inhibition of NECA-induced β-Galactosidase activity, yeast strain CY12660): > 10 µM"
"Cc1[nH]c2nc(-c3cccs3)nc(NC3CCC(O)CC3)c2c1C (stereo not drawn) [CDS-090890, 4-(4-trans-hydroxycyclohexyl)amino-5,6-dimethyl-2-(2-thienyl)-7H-pyrrolo[2,3d]pyrimidin-4-amine]",0.0466 µM,
Cc1[nH]c2nc(-c3ccccc3)nc(NCC(C)NC(=O)OC(C)(C)C)c2c1C (centres unmarked) [CDS-090906],0.105 µM,IC50 (human adenosine A1 (A1R)): 0.472 µM
Cc1[nH]c2nc(-c3ccccc3)nc(NC3CCC(NC(=O)CCN)CC3)c2c1C (centres unmarked) [CDS-121272],,Ki [2]: 0.369 µM
"CC(=O)NCCNc1nc(-c2ccccc2)nc2[nH]c(Cn3ccccc3=O)cc12 [CDS-143988, 4-(2-acetylaminoethyl)amino-6-(N-pyridin-2-one)methyl-2-phenyl-7H-pyrrolo[2,3d]pyrimidine]",0.06 µM,
"CC(=O)NCCNc1nc(-c2ccccc2)nc2[nH]c(COc3ccc(F)cc3)cc12 [CDS-143995, 4-(2-acetylaminoethyl)amino-6-(4-fluorophenoxy)methyl-2-phenyl-7H-pyrrolo[2,3d]pyrimidine]",0.033 µM,

# Like-named read-outs stand apart in the source and are kept apart here.
